Usually EC50 stands for the concentration that produces a half-maximal response.

By UniProt entry, the sequences of proteins in these tests, tags left out.
UniProt Q8TDV0, whole entry: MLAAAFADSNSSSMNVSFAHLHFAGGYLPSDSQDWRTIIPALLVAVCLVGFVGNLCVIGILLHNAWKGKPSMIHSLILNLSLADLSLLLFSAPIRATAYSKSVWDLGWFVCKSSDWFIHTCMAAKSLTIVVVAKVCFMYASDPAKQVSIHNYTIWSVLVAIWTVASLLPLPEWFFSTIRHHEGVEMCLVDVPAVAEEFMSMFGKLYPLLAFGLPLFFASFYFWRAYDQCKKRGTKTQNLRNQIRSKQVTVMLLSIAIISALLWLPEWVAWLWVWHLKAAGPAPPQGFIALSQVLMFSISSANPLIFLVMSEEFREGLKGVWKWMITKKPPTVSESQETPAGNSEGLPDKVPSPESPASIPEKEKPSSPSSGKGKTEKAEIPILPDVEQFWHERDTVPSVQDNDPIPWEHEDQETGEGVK

In PubChem BioAssay AID1508610 (The Scripps Research Institute Molecular Screening Center, 2020) one finds EC50 data, which are given here for one compound.

In the experiment the target is G-protein coupled receptor 151 (Homo sapiens) (UniProt Q8TDV0). In words: GPR151 activator potency, dose response, cell-based (AID 1508610). To be noted: cell-based GPR151 activation reporter.

Calls of active or inactive are those of the source. The rule behind the calls is not given here.

Regarding `CCCN1CCC(Nc2ccc(Cl)cc2)CC1`, the EC50 is inactive: > 28 µM.
